# Literature values as cited in US10294298B2, “Human PAC1 antibodies” (AMGEN INC., priority 2013, dated 2019).
# Chains of the proteins cited; added tags and fusions are not shown. Residues count along the entry.
# UniProt P32241, 31-457: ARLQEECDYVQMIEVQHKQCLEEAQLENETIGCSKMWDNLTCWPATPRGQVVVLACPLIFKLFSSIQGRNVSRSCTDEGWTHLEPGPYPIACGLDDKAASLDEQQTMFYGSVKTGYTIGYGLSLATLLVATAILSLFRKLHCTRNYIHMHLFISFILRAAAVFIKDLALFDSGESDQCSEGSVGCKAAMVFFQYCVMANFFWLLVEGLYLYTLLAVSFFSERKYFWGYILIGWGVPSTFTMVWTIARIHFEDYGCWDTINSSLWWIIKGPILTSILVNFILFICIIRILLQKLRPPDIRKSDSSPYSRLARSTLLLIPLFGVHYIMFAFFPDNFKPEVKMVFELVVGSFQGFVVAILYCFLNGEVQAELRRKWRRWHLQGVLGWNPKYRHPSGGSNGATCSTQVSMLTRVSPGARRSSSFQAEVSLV
# Target: VPAC1 (Homo sapiens, UniProt P32241)
# Settings: receptor agonist; background table
substance,measurement,value
"VIP: vasoactive intestinal polypeptide, endogenous agonist",pEC50,10.70

# pEC50: −log10 of the molar value.
